System: pectic acid lyases from Example 3 and Example 8
Assay: Effects of a specific inhibitor on residual activity
Assay type: biochemical, Bacillus sp. KSM-P15
Conditions: inhibitor 1 mM, 50 mM Tris-HCl buffer pH 7.5, 30°C, one hour; both enzymes

Q: For `O=[N+]([O-])c1cc([N+](=O)[O-])c(S(=O)(=O)O)c([N+](=O)[O-])c1`, which percentage inhibition is on record?
A: 75-80%

Reference: EP1500700B1, “Use of a pectic acid lyase in a detergent” (KAO CORPORATION, priority 1997, dated 1998)
